Here are results for ten molecules from patent publication US7875602B2 (priority 2005, dated 2011).

Assay [1] deals with VM46: taxol-resistant, overexpressing multi-drug resistant gene, sub-line of HCT-116. Put plainly: cells. Particulars: Homo sapiens, HCT-116, 72 h, read-out: IC50 (nM) VM46.
In assay [2] the test system is HCT116: human colon cancer cell line. In words: cells. Particulars: HCT-116, 72 h, read-out: IC50 (nM) HCT116.

As for `CC[C@@]1(OC(=O)CON=C2c3cc([N+](=O)[O-])cc([N+](=O)[O-])c3-c3c2cc([N+](=O)[O-])cc3[N+](=O)[O-])C(=O)OCc2c1cc1n(c2=O)Cc2cc3cc(OC(=O)OC(C)(C)C)ccc3nc2-1` [Compound 8, 20-O-(TNF-ethanoyl)-Boc-10H-CPT ester], the IC50 was 0.6 nM in assay [1] and 3 nM in assay [2].
For `CC[C@@]1(OC(=O)[C@@H](C)ON=C2c3cc([N+](=O)[O-])cc([N+](=O)[O-])c3-c3c2cc([N+](=O)[O-])cc3[N+](=O)[O-])C(=O)OCc2c1cc1n(c2=O)Cc2cc3c(CN(C)C)c(O)ccc3nc2-1` [Compound 10] the same measures were 11 nM and 16.4 nM.
As for `CC[C@]1(OC(=O)[C@H](C)ON=C2c3cc([N+](=O)[O-])cc([N+](=O)[O-])c3-c3c2cc([N+](=O)[O-])cc3[N+](=O)[O-])C(=O)OCc2c1cc1n(c2=O)Cc2cc3c(CN(C)C)c(O)ccc3nc2-1` [Compound 12], the IC50 stood at 5.7 nM in assay [1] and 7.7 nM in assay [2].
For `CC[C@@]1(OC(=O)[C@@H](C)ON=C2c3cc([N+](=O)[O-])cc([N+](=O)[O-])c3-c3c2cc([N+](=O)[O-])cc3[N+](=O)[O-])C(=O)OCc2c1cc1n(c2=O)Cc2cc3ccccc3nc2-1` [Compound 13] the same measures were 3 nM and 3.2 nM.
For `CC[C@@]1(OC(=O)CON=C2c3cc([N+](=O)[O-])cc([N+](=O)[O-])c3-c3c2cc([N+](=O)[O-])cc3[N+](=O)[O-])C(=O)OCc2c1cc1n(c2=O)Cc2cc3c(CN(C)C)c(O)ccc3nc2-1` [Compound 16], the results for the IC50 in assay [1] and in assay [2] were 6.7 nM and 8.6 nM, respectively.
With `CC[C@@]1(OC(=O)[C@H](C)ON=C2c3cc([N+](=O)[O-])cc([N+](=O)[O-])c3-c3c2cc([N+](=O)[O-])cc3[N+](=O)[O-])C(=O)OCc2c1cc1n(c2=O)Cc2cc3ccccc3nc2-1` [Compound 17], the IC50 was 3 nM in assay [1] and 4 nM in assay [2].
For `CC[C@@]1(OC(=O)CON=C2c3ccccc3-c3ccccc32)C(=O)OCc2c1cc1n(c2=O)Cc2cc3ccccc3nc2-1` [Compound 19] the same measures were 0.6 nM and 3 nM.
For `CC[C@@]1(OC(=O)[C@@H](C)ON=C2c3cc([N+](=O)[O-])cc([N+](=O)[O-])c3-c3c2cc([N+](=O)[O-])cc3[N+](=O)[O-])C(=O)OCc2c1cc1n(c2=O)Cc2cc3cc(O)ccc3nc2-1` [Compound 20] the same measures were 1.5 nM and 3.3 nM.
Regarding `CC[C@@]1(OC(=O)C(C)ON=C2c3ccccc3-c3ccccc32)C(=O)OCc2c1cc1n(c2=O)Cc2cc3cc(OC(=O)OC(C)(C)C)ccc3nc2-1` (some centres unmarked) [Compound 21], the IC50 was determined as 0.6 nM in assay [1] and 3 nM in assay [2].
For `CC[C@@]1(O)C(=O)OCc2c1cc1n(c2=O)Cc2cc3c(CN(C)C)c(O)ccc3nc2-1` [Topotecan, (20S)-9-dimethylaminomethyl-10-hydroxy CPT, reference compound] the same measures were 10.6 nM and 10.3 nM.

What is called IC50 is the point on the concentration scale where inhibition reaches its midpoint.
